The test addresses isolated polymerase domain (I1780-V2590) of DNA polymerase theta (Polθ) (Homo sapiens (Human), UniProt O75417). Briefly: biochemical.

Chains of the proteins cited; added tags and fusions are not shown. Residues count along the entry.
UniProt O75417, 1780-2590: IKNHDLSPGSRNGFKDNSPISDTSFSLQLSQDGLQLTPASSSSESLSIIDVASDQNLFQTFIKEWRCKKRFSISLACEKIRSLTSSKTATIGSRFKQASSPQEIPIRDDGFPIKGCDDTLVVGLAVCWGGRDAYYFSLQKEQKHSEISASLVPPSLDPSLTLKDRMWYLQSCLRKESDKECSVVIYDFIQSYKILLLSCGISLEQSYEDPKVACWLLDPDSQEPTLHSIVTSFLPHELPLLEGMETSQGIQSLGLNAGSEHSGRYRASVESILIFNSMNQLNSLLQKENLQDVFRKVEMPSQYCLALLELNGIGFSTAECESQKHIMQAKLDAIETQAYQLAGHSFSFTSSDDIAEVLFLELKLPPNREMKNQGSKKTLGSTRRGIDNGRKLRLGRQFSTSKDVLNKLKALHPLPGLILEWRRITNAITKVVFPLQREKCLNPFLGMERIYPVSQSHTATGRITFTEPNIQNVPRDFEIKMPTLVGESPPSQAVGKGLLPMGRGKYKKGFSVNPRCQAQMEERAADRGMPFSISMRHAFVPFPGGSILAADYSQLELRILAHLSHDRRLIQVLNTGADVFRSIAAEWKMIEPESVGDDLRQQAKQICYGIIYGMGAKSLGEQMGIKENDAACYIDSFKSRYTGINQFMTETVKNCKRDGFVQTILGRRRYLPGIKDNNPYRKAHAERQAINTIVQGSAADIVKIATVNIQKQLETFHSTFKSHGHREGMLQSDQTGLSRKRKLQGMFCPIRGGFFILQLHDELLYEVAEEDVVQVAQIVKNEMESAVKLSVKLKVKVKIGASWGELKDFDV

Consider 29 compounds from patent US20250195530A1, “POLQ INHIBITORS” (ASTRAZENECA AB, priority 2022, published 2025).

By IC50 is commonly meant the concentration that inhibits the measured activity by half. Low readings indicate greater potency, high ones weaker potency. Regarding `Cc1ccnc(Cn2c(-c3ccc(OCC(=O)NC(C)C)cc3Cl)nc3c(OC4(C)CC4)ncnc32)c1` [Example T366, 2-(3-chloro-4-(6-(1-methylcyclopropoxy)-9-((4-methylpyridin-2-yl)methyl)-9H-purin-8-yl)phenoxy)-N-isopropylacetamide], the IC50 is 7.94 nM.

Regarding `CC(=O)NCCCOc1ccc(-c2nc3c(OC4(C)CC4)ncnc3n2Cc2cc(C)ccn2)c(Cl)c1` [Example T367, N-(3-(3-chloro-4-(6-(1-methylcyclopropoxy)-9-((4-methylpyridin-2-yl)methyl)-9H-purin-8-yl)phenoxy)propyl)acetamide], the IC50 is 5.01 nM.

`Cc1ccnc(Cn2c(-c3ccc(CCNC(=O)[C@@H](C)O)cc3Cl)nc3c(OC4(C)CC4)ncnc32)c1` [Example T368, (R)-N-(3-chloro-4-(6-(1-methylcyclopropoxy)-9-((4-methylpyridin-2-yl)methyl)-9H-purin-8-yl)phenethyl)-2-hydroxypropanamide] showed an IC50 of 5.01 nM.

Turning to `Cc1ccnc(Cn2c(-c3ccc(CC(=O)N(C)CCO)cc3Cl)nc3c(OC4(C)CC4)ncnc32)c1` [Example T369, 2-(3-chloro-4-(6-(1-methylcyclopropoxy)-9-((4-methylpyridin-2-yl)methyl)-9H-purin-8-yl)phenyl)-N-(2-hydroxyethyl)-N-methylacetamide], it took 7.94 nM to reach half-maximal inhibition (IC50). This IC50 is about 1.6-fold higher than that of the compound before.

For the compound `Cc1ccnc(Cn2c(-c3ccc(CC(=O)NCCCO)cc3Cl)nc3c(OC4(C)CC4)ncnc32)c1` [Example T370, 2-(3-chloro-4-(6-(1-methylcyclopropoxy)-9-((4-methylpyridin-2-yl)methyl)-9H-purin-8-yl)phenyl)-N-(3-hydroxypropyl)acetamide], the IC50 was 7.94 nM.

In turn, `Cc1ccnc(Cn2c(-c3ccc(CC(=O)NC[C@H](C)O)cc3Cl)nc3c(OC4(C)CC4)ncnc32)c1` [Example T371, (S)-2-(3-chloro-4-(6-(1-methylcyclopropoxy)-9-((4-methylpyridin-2-yl)methyl)-9H-purin-8-yl)phenyl)-N-(2-hydroxypropyl)acetamide] showed an IC50 of 10 nM.

Take `Cc1ccnc(Cn2c(-c3ccc(OCC(=O)NC[C@H](C)O)cc3Cl)nc3c(OC4(C)CC4)ncnc32)c1` [Example T372, (S)-2-(3-chloro-4-(6-(1-methylcyclopropoxy)-9-((4-methylpyridin-2-yl)methyl)-9H-purin-8-yl)phenoxy)-N-(2-hydroxypropyl)acetamide]: inhibition was half-maximal at 6.31 nM (IC50).

For the compound `Cc1ccnc(Cn2c(-c3ccc(OCC(=O)NCCCO)cc3Cl)nc3c(OC4(C)CC4)ncnc32)c1` [Example T373, 2-(3-chloro-4-(6-(1-methylcyclopropoxy)-9-((4-methylpyridin-2-yl)methyl)-9H-purin-8-yl)phenoxy)-N-(3-hydroxypropyl)acetamide], the IC50 is 7.94 nM. This IC50 and that of the compound before are within 1.5-fold of each other.

`Cc1ccnc(Cn2c(-c3ccc(OCC(=O)N(C)CCO)cc3Cl)nc3c(OC4(C)CC4)ncnc32)c1` [Example T374, 2-(3-chloro-4-(6-(1-methylcyclopropoxy)-9-((4-methylpyridin-2-yl)methyl)-9H-purin-8-yl)phenoxy)-N-(2-hydroxyethyl)-N-methylacetamide] showed an IC50 of 7.94 nM.

`Cc1ccnc(Cn2c(-c3ccc(OCCNC(=O)[C@@H](C)O)cc3Cl)nc3c(OC4(C)CC4)ncnc32)c1` [Example T375, (R)-N-(2-(3-chloro-4-(6-(1-methylcyclopropoxy)-9-((4-methylpyridin-2-yl)methyl)-9H-purin-8-yl)phenoxy)ethyl)-2-hydroxypropanamide] had an IC50 of 5.01 nM.

Consider `CN(C)CCCOc1ccc(-c2nc3c(OC4(C)CC4)nccc3n2Cc2cc(Cl)ccn2)c(Cl)c1` [Example T377, 3-(3-chloro-4-(1-((4-chloropyridin-2-yl)methyl)-4-(1-methylcyclopropoxy)-1H-imidazo[4,5-c]pyridin-2-yl)phenoxy)-N,N-dimethylpropan-1-amine], for which the midpoint of inhibition, the IC50, lay at 6.31 nM. This IC50 and that of the compound before are within 1.5-fold of each other.

On to `CC1(Oc2ncnc3c2nc(-c2ccc(OCCN4CCNCC4)cc2Cl)n3Cc2ccnc(Cl)c2)CC1` [Example T378, 8-(2-chloro-4-(2-(piperazin-1-yl)ethoxy)phenyl)-9-((2-chloropyridin-4-yl)methyl)-6-(1-methylcyclopropoxy)-9H-purine], for which it took 10 nM to reach half-maximal inhibition (IC50).

In turn, `CC1(Oc2ncnc3c2nc(-c2ccc(OCCN4CCNCC4)cc2Cl)n3Cc2cncc(Cl)c2)CC1` [Example T379, 8-(2-chloro-4-(2-(piperazin-1-yl)ethoxy)phenyl)-9-((5-chloropyridin-3-yl)methyl)-6-(1-methylcyclopropoxy)-9H-purine] gave an IC50 of 20 nM. This IC50 lies about 2-fold higher than the previous one.

`CC1(Oc2ncnc3c2nc(-c2ccc(OCCN4CCN(S(=O)(=O)O)CC4)cc2Cl)n3Cc2cc(Cl)ccn2)CC1` [Example T380, 4-(2-(3-chloro-4-(9-((4-chloropyridin-2-yl)methyl)-6-(1-methylcyclopropoxy)-9H-purin-8-yl)phenoxy)ethyl)piperazine-1-sulfonic acid] showed an IC50 of 25.1 nM. This IC50 and that of the compound before are within 1.5-fold of each other.

Consider `Cc1ccnc(Cn2c(-c3ccc(OCCN(C)C)cc3Cl)nc3c(OC4(C)CC4)nccc32)c1` [Example T381, 2-(3-chloro-4-(4-(1-methylcyclopropoxy)-1-((4-methylpyridin-2-yl)methyl)-1H-imidazo[4,5-c]pyridin-2-yl)phenoxy)-N,N-dimethylethan-1-amine], for which the IC50 was 10 nM.

As for `Cc1ccnc(Cn2c(-c3ccc(OCCC(C)(C)O)cc3Cl)nc3c(OC4(C)CC4)ncnc32)c1` [Example T382, 4-(3-chloro-4-(6-(1-methylcyclopropoxy)-9-((4-methylpyridin-2-yl)methyl)-9H-purin-8-yl)phenoxy)-2-methylbutan-2-ol], half-maximal inhibition (IC50) was put at 5.01 nM.

For `Cc1ccnc(Cn2c(-c3ccc(OCC(C)(C)CO)cc3Cl)nc3c(OC4(C)CC4)ncnc32)c1` [Example T383, 3-(3-chloro-4-(6-(1-methylcyclopropoxy)-9-((4-methylpyridin-2-yl)methyl)-9H-purin-8-yl)phenoxy)-2,2-dimethylpropan-1-ol], inhibition was half-maximal at 6.31 nM (IC50). The IC50 values of the last two compounds are within 1.5-fold of each other.

In turn, `Cc1ccnc(Cn2c(-c3ccc(N4CCCNCC4)cc3Cl)nc3c(OC4(C)CC4)ncnc32)c1` [Example T384, 8-(2-chloro-4-(1,4-diazepan-1-yl)phenyl)-6-(1-methylcyclopropoxy)-9-((4-methylpyridin-2-yl)methyl)-9H-purine] had an IC50 of 6.31 nM. That is a single-digit nanomolar value.

As for `Cc1ccnc(Cn2c(-c3ccc(OCCCN(C)C)cc3Cl)nc3c(OC4(C)CC4)ncnc32)c1` [Example T385, 3-(3-chloro-4-(6-(1-methylcyclopropoxy)-9-((4-methylpyridin-2-yl)methyl)-9H-purin-8-yl)phenoxy)-N,N-dimethylpropan-1-amine], the IC50 was 6.31 nM.

In turn, `Cc1ccnc(Cn2c(-c3cccc(OCCCN(C)C)c3Cl)nc3c(OC4(C)CC4)ncnc32)c1` [Example T386, 3-(2-chloro-3-(6-(1-methylcyclopropoxy)-9-((4-methylpyridin-2-yl)methyl)-9H-purin-8-yl)phenoxy)-N,N-dimethylpropan-1-amine] gave an IC50 of 6.31 nM.

Compound `Cc1cc(OCCCN(C)C)ccc1-c1nc2c(OC3(C)CC3)ncnc2n1Cc1cc(Cl)ccn1` [Example T387, 3-(4-(9-((4-chloropyridin-2-yl)methyl)-6-(1-methylcyclopropoxy)-9H-purin-8-yl)-3-methylphenoxy)-N,N-dimethylpropan-1-amine] showed an IC50 of 7.94 nM.

Take `Cc1cnc(Cn2c(-c3ccc(OCCCN4CCCC4)cc3Cl)nc3c(OC4(C)CC4)ncnc32)s1` [Example T388, 2-((8-(2-chloro-4-(3-(pyrrolidin-1-yl)propoxy)phenyl)-6-(1-methylcyclopropoxy)-9H-purin-9-yl)methyl)-5-methylthiazole]: the IC50 is 5.01 nM. This IC50 is about 1.6-fold lower than that of the compound before.

Compound `Cc1cnc(Cn2c(-c3ccc(OCCCN4CC[C@@H](O)C4)cc3Cl)nc3c(OC4(C)CC4)ncnc32)s1` [Example T391, (R)-1-(3-(3-chloro-4-(6-(1-methylcyclopropoxy)-9-((5-methylthiazol-2-yl)methyl)-9H-purin-8-yl)phenoxy)propyl)pyrrolidin-3-ol] showed an IC50 of 5.01 nM.

Regarding `Cc1cnc(Cn2c(-c3cccc(OCCCN4CC[C@@H](O)C4)c3Cl)nc3c(OC4(C)CC4)ncnc32)s1` [Example T392, (R)-1-(3-(2-chloro-3-(6-(1-methylcyclopropoxy)-9-((5-methylthiazol-2-yl)methyl)-9H-purin-8-yl)phenoxy)propyl)pyrrolidin-3-ol], the IC50 was 7.94 nM.

Regarding `Cc1cnc(Cn2c(-c3ccc(OCCN4CCNC[C@@H]4C)cc3Cl)nc3c(OC4(C)CC4)ncnc32)s1` [Example T393, (S)-2-((8-(2-chloro-4-(2-(2-methylpiperazin-1-yl)ethoxy)phenyl)-6-(1-methylcyclopropoxy)-9H-purin-9-yl)methyl)-5-methylthiazole], the IC50 is 5.01 nM.

Consider `Cn1nc(COc2ccc(-c3nc4c(OC5(C)CC5)ncnc4n3Cc3cccc(Cl)c3)c(Cl)c2)cc1C(=O)O` [Example T394, 3-((3-chloro-4-(9-(3-chlorobenzyl)-6-(1-methylcyclopropoxy)-9H-purin-8-yl)phenoxy)methyl)-1-methyl-1H-pyrazole-5-carboxylic acid], for which the IC50 was 3.16 nM.

In turn, `C[C@H](CCOc1ccc(-c2nc3c(OC4(C)CC4)ncnc3n2Cc2cccc(C#N)c2)c(Cl)c1)C(=O)O` [Example T401, (R)-4-(3-chloro-4-(9-(3-cyanobenzyl)-6-(1-methylcyclopropoxy)-9H-purin-8-yl)phenoxy)-2-methylbutanoic acid] showed an IC50 of 3.98 nM.

Compound `C[C@H](CCOc1ccc(-c2nc3c(OC4(C)CC4)ncnc3n2Cc2ccccc2C#N)c(Cl)c1)C(=O)O` [Example T402, (R)-4-(3-chloro-4-(9-(2-cyanobenzyl)-6-(1-methylcyclopropoxy)-9H-purin-8-yl)phenoxy)-2-methylbutanoic acid] gave an IC50 of 10 nM.

`C[C@@H](CCOc1ccc(-c2nc3c(OC4(C)CC4)ncnc3n2Cc2ccccc2C#N)c(Cl)c1)C(=O)O` [Example T403, (S)-4-(3-chloro-4-(9-(2-cyanobenzyl)-6-(1-methylcyclopropoxy)-9H-purin-8-yl)phenoxy)-2-methylbutanoic acid] had a half-maximal inhibitory concentration (IC50) of 10 nM.
